This is an account of results in patent publication US20260168007A1, “Methods and Devices for Detecting Mechanical Forces Using Cas Nuclease and Guide RNA Complexes” (Emory University, priority 2022, published 2026).

The test system of this assay is human platelets. In words: MCATS assay of human platelet forces on Ttol=12 pN surface. Conditions: healthy donor and CPB donors before and after surgery.

As for `CC(=O)Oc1ccccc1C(=O)O` [aspirin], the “influence of CPB surgery on mechano-IC50” value was “did not influence the mechano-IC50 significantly”.
